Test results taken from paper PMC11370232, “Repurposing of a library for high-content screening of inhibitors against Echinococcus granulosus” (Parasites & Vectors, 2024).

System: E. granulosus PSCs
Assay: microbe, parasite or virus in culture
Conditions: Echinococcus granulosus
[1] = read-out: Anti-echinococcus activity % of death, 0.5uM
[2] = read-out: Anti-echinococcus activity % of death, 2uM
[3] = read-out: Anti-echinococcus activity % of death, 10uM
[4] = read-out: Anti-echinococcus activity % of death, 50uM
[5] = read-out: Anti-echinococcus activity % of death, 0.5uM, E. granulosus PSCs, compound at 0.5uM
[6] = read-out: Anti-echinococcus activity % of death, 2uM, E. granulosus PSCs, compound at 2uM
[7] = read-out: Anti-echinococcus activity % of death, 10uM, E. granulosus PSCs, compound at 10uM
[8] = read-out: Anti-echinococcus activity % of death, 50uM, E. granulosus PSCs, compound at 50uM
[9] = read-out: Anti-echinococcus activity % of death

SMILES | mortality at 0.5 µM [1] | mortality at 2 µM [2] | mortality at 10 µM [3] | mortality at 50 µM [4] | further results
CCCCCOc1ccc(C(O)(CCN(C)C)C2CCCCC2)cc1 (stereo not shown) [0/FCOCMDJFHNPRQP-UHFFFAOYSA-N] | 0% | 0% | 0% | 100% | 
O=C(Nc1cc(C(F)(F)F)ccc1C(F)(F)F)c1cc(Br)cc(Br)c1O [0/IMD-0560] | 0% | 0% | 60% | 100% | 
COC1C(OC(C)=O)C(C)OC(OC2CC[C@@]3(C=O)[C@@H](CCC4[C@@H]3CC[C@]3(C)[C@H](c5ccc(=O)oc5)CCC43O)C2)C1OC(C)=O (stereo partly shown) [0/P35] | 0% | 50% | 100% | 100% | 
COc1ccc2c3c1OC1C(=O)C=CC4(O)C(C2)N(C)CCC314 (stereo not shown) [14-Hydroxycodeinone] | 0% | 20% | 40% | 100% | 
O[C@@H](c1cc(C(F)(F)F)nc2c(C(F)(F)F)cccc12)[C@H]1CCCCN1 [(+)-mefloquine] |  |  |  |  | mortality at 0.5 µM [5]: 0%; mortality at 2 µM [6]: 0%; mortality at 10 µM [7]: 0%; mortality at 50 µM [8]: 100%
CC(=O)Oc1cc(C)c(OC(C)=O)c2ccccc12 [ACETOMENAPHTHONE] | 0% | 0% | 60% | 100% | 
CCN(CC)CC(O)CNc1c2ccc(Cl)cc2nc2ccc(OC)cc12 (stereo not shown) [ACRANIL] | 0% | 0% | 0% | 100% | 
Nc1c2ccccc2nc2ccccc12 [ACRISORCIN] |  |  |  |  | mortality at 0.5 µM [5]: 0%; mortality at 2 µM [6]: 0%; mortality at 10 µM [7]: 0%; mortality at 50 µM [8]: 100%
Cc1cc(C(=O)Nc2cc(Nc3ccc4c(/C=C/c5ccccn5)n[nH]c4c3)ccc2F)n(C)n1 [AG-13958] | 0% | 0% | 50% | 100% | 
CO[C@@H]1[C@H](OC(=O)NC(=O)CCl)CC[C@]2(CO2)[C@H]1[C@@]1(C)O[C@@H]1CC=C(C)C [AGM-1470] | 0% | 0% | 40% | 100% | 
CC(C)C(=O)c1ccc(OCCCN2CCC(C(O)(c3ccc(F)cc3)c3ccc(F)cc3)CC2)cc1 [AHR 16303B] | 0% | 0% | 30% | 100% | 
CCCCC(CC)CNC(=N)NC(=N)NCCCCCCNC(=N)NC(=N)NCC(CC)CCCC (stereo not shown) [ALEXIDINE] | 0% | 0% | 30% | 100% | 
C=C(C(=O)OC1CC2CCC(C1)N2C)c1ccccc1 (stereo not shown) [APOATROPINE] |  |  |  |  | mortality at 0.5 µM [9]: 0%; mortality at 2 µM [9]: 0%; mortality at 10 µM [9]: 0%; mortality at 50 µM [9]: 100%
Cc1cccc(/C=N/Nc2cc(N3CCOCC3)n3nc(-c4ccncc4)cc3n2)c1 [APY0201] |  |  |  |  | mortality at 0.5 µM [9]: 0%; mortality at 2 µM [9]: 0%; mortality at 10 µM [9]: 0%; mortality at 50 µM [9]: 100%
Cc1ccc(C(=O)OCc2ccc([C@@H](CN)C(=O)Nc3ccc4cnccc4c3)cc2)c(C)c1 [AR-13324] | 0% | 0% | 0% | 100% | 
NC[C@@](O)(c1ccc(Cl)cc1)c1ccc(-c2cn[nH]c2)cc1 [AT13148] |  |  |  |  | killing at 0.5 µM (72 h, read-out: Anti-echinicoccus activity, Dose confirmaiton 0.5uM, second-stage dose-response, 0.5 μM, PSCs): 0%; killing at 2 µM (72 h, read-out: Anti-echinicoccus activity, Dose confirmaiton 2uM, second-stage dose-response, 2 μM, PSCs): 0%; killing at 10 µM (72 h, read-out: Anti-echinicoccus activity, Dose confirmaiton 10uM, second-stage dose-response, 10 μM, PSCs): 0%; killing at 50 µM (72 h, read-out: Anti-echinicoccus activity, Dose confirmaiton 50uM, second-stage dose-response, 50 μM, PSCs): 100%; killing at 50 µM (72 h, read-out: Anti-echinicoccus activity, Initiate hits 50uM, primary screen, 50 μM, PSCs, 3-day incubation, PI staining (death rate of PSCs)): 100%
NC[C@@](O)(c1ccc(Cl)cc1)c1ccc(-c2cn[nH]c2)cc1 [AT-13148] | 0% | 0% | 0% | 100% | 
CCOC(=O)[C@H](CCSC)NC(=O)[C@H](Cc1cccc(N(CCCl)CCCl)c1)NC(=O)[C@@H](N)Cc1ccc(F)cc1 [Ambamustine hydrochloride] | 0% | 0% | 0% | 100% | 

Counter-ions that a name gives are not always drawn. Like-named read-outs stand apart in the source and are kept apart here.
